Consider one compound from patent publication US10800752B2, “Substituted naphtho[2,3-b]furans as water-soluble prodrugs for preventing and/or treating cancer” (BOSTON BIOMEDICAL, INC., priority 2015, dated 2020).

A short description of data set [1]: Solubility test. As to conditions: 50 mmol/L glycine buffer solution (pH 2.0), room temperature, 24 hours shaking.
The nature of data set [2]: Evaluation of a conversion rate to 2-acetylnaphtho[2,3-b]furan-4,9-dione in human plasma. The format is in vitro ADME. As to conditions: 1 umol/L, 37° C., incubation time 120 min. As to the method:
For test compounds, the decrease rate of the test compounds and the conversion rate thereof to 2-acetylnaphtho[2,3-b]furan-4,9-dione in human plasma, CD1 mouse plasma, and pH 7.4 phosphate buffer solution were measured.
Test compounds were incubated at the concentration of 1 umol/L in human plasma (cat. no. 12250210, COSMO BIO), CD1 mouse plasma (cat. no. AP3054, KAC), and phosphate buffer solution at 37° C., and removed at predetermined times (0, 5, 10, 30, 60, and 120 minutes). After protein-removing treatment was performed, they are analyzed with LC-MS. It should be noted that the protein-removing treatment used acetonitrile containing: 10% volume of 1 mol/L hydrochloric acid; 1% volume of 46% citric acid; and phenytoin as an internal standard.
The measurement condition of LC-MS is as described below. LC-MS condition column: Kinetex 2.6 u PFP 100 A 50×2.1 mm Column temperature: 40° C. […]
Measurement values are calculated from the peak area ratio in LC-MS between an internal standard material, phenytoin and an active form, 2-acetylnaphtho[2,3-b]furan-4,9-dione, and are expressed in %.
In the same way as Example 6, the incubation time was set as 120 minutes later, and the conversion rate of each of various test compounds to 2-acetylnaphtho[2,3-b]furan-4,9-dione in human plasma, CD1 mouse plasma, and pH 7.4 phosphate buffer solution was measured. […]

On to `CC(=O)c1cc2c(OC(=O)NCCNCC(F)F)c3ccccc3c(OC(=O)NCCNCC(F)F)c2o1.Cl.Cl` [Example 44], for which the “Solubility in pH 2.0 buffer solution” value in data set [1] is recorded as over 5.0 mg/mL. In data set [2], the “% Measurement value (conversion rate to 2-acetylnaphtho[2,3-b]furan-4,9-dione)” value was 88%.
